Assay results reported in patent publication US20260240772A1 (priority 2022, published 2026).

System: mice with neuropathic pain
Details: tail intravenous injection 5 mg kg^−1 (FIG. 8) or subcutaneous injection 10 mg kg^−1 (FIG. 9); 0.4 g von Frey filament

CN1CC[C@]23c4c5ccc(O)c4O[C@H]2[C@@H](O)C=C[C@H]3[C@H]1C5 [morphine single drug, morphine]
time of obvious analgesic effect after administration (reduced foot withdrawal frequency vs solvent group): ≤ 2 h
